Assay results reported in patent publication US12528818B2, “Compositions and methods for inhibition of RAS” (Leidos Biomedical Research, Inc., priority 2021, dated 2026).

What was measured:
[1] = molecular target: T1, GTP-loaded KRAS4b (amino acids 1-169) G12C/C118S protein (Homo sapiens, UniProt P01116, C118S/G12C); assay: Covalent cysteine 12 modification by MALDI-TOF MS, GTP-loaded KRAS G12C; assay type: biochemical; details: 15 minutes reaction time, compound 95 or later using 1 μM proteins
T1 construct: KRAS4b (amino acids 1-169) G12C/C118S protein; made in house

[2] = molecular target: GDP-loaded KRAS4b (amino acids 1-169) G12C/C118S protein (Homo sapiens, UniProt P01116, C118S/G12C); assay: Covalent cysteine 12 modification by MALDI-TOF MS, GDP-loaded KRAS G12C; assay type: biochemical; details: 15 minutes reaction time, compound 95 or later using 1 μM proteins
[3] = molecular target: Avi-KRAS G12C (1-169) GppNHp/RAF1 RBD-3xFLAG (52-151) (Homo sapiens, UniProt P01116, G12C); assay: biochemical; details: Raf1-GppNHp-KRAS G12C disruption, Raf1 RBD-KRAS G12C-GppNHp disruption assay IC50
[4] = molecular target: GppNHp-loaded KRAS4b (amino acids 1-169) G12C/C118S protein (Homo sapiens, UniProt P01116, C118S/G12C); assay: Covalent cysteine 12 modification by MALDI-TOF MS, GppNHp-loaded KRAS G12C; assay type: biochemical; details: 15 minutes reaction time, compound 95 or later using 1 μM proteins

Structure (SMILES)	GTP-KRAS G12C percent of modification [1]	GDP-KRAS G12C percent of modification [2]	IC50 [3] [nM]	GppNHp-KRAS G12C percent of modification [4]
C=CC(=O)N1C[C@H](N(C)c2nc(OC[C@@]34CCCN3C[C@H](F)C4)nc3c(F)c(-c4ccc(F)c5sc(N)nc45)c(C(F)(F)F)cc23)C[C@@H]1C [Compound 293]	C (10%≤percent of modification <50%)	A (percent of modification ≥70%)	< 500	A (percent of modification ≥70%)
C=CC(=O)N1C[C@H](N(C)c2nc(OC[C@@]34CCCN3C[C@H](F)C4)nc3c(F)c(-c4ccc(F)c5sc(N)nc45)c(C(F)(F)F)cc23)C2(CC2)C1 [Compound 294]	C (10%≤percent of modification <50%)	A (percent of modification ≥70%)	500 to 5000	C (10%≤percent of modification <50%)
C=CC(=O)N1C[C@H](C)N(c2nc(OC[C@@]34CCCN3C[C@H](F)C4)nc3c(Cl)c(-c4ccc(F)c5sc(N)nc45)c(C(F)(F)F)cc23)C[C@H]1C [Compound 295, 1-((2R,5S)-4-(7-(2-amino-7-fluorobenzo[d]thiazol-4-yl)-8-chloro-2-(((2R,7aS)-2-fluorotetrahydro-1H-pyrrolizin-7a(5H)-yl)methoxy)-6-(trifluoromethyl)quinazolin-4-yl)-2,5-dimethylpiperazin-1-yl)prop-2-en-1-one]	D (percent of modification <10%)	B (50≤percent of modification <70%)	< 500	C (10%≤percent of modification <50%)
C=CC(=O)N1C[C@H](C)N(c2nc(OC[C@@]34CCCN3C[C@H](F)C4)nc3cc(-c4c(F)cc(F)c5sc(N)nc45)c(C(F)(F)F)cc23)C[C@H]1C [Compound 298, 1-((2R,5S)-4-(7-(2-amino-5,7-difluorobenzo[d]thiazol-4-yl)-2-(((2R,7aS)-2-fluorotetrahydro-1H-pyrrolizin-7a(5H)-yl)methoxy)-6-(trifluoromethyl)quinazolin-4-yl)-2,5-dimethylpiperazin-1-yl)prop-2-en-1-one]	C (10%≤percent of modification <50%)	A (percent of modification ≥70%)	< 500	B (50≤percent of modification <70%)
C=CC(=O)N1C[C@H](C)N(c2nc(OC[C@@]34CCCN3C[C@H](F)C4)nc3cc(-c4ccc(F)c5sc(N)nc45)c(C(F)(F)F)cc23)C[C@H]1C [Compound 299]	D (percent of modification <10%)	A (percent of modification ≥70%)	< 500	C (10%≤percent of modification <50%)
C=CC(=O)N1CC[C@@H](N(C)c2nc(OC[C@@]34CCCN3C[C@H](F)C4)nc3cc(-c4ccc(F)c5sc(N)nc45)c(C(F)(F)F)cc23)C1 [Compound 300]	A (percent of modification ≥70%)	A (percent of modification ≥70%)	< 500	A (percent of modification ≥70%)
C=CC(=O)N1C[C@H](N(C)c2nc(OC[C@@]34CCCN3C[C@H](F)C4)nc3c(F)c(-c4ccc(F)c5sc(N)nc45)c(C(F)(F)F)cc23)C(C)(C)C1 [Compound 301]	D (percent of modification <10%)	A (percent of modification ≥70%)	500 to 5000	C (10%≤percent of modification <50%)
C=CC(=O)N1C[C@H](C)N(c2nc(OC[C@@]34CCCN3C[C@H](F)C4)nc3cc(-c4ccc(F)c5sc(N)c(C#N)c45)c(C(F)(F)F)cc23)C[C@H]1C [Compound 304]	C (10%≤percent of modification <50%)	A (percent of modification ≥70%)	< 500	A (percent of modification ≥70%)
C=CC(=O)N1CC[C@@H](N(C)c2nc(OC[C@@]34CCCN3C[C@H](F)C4)nc3cc(-c4c(F)cc(F)c5sc(N)nc45)c(C(F)(F)F)cc23)C1 [Compound 305]	A (percent of modification ≥70%)	A (percent of modification ≥70%)	< 500	A (percent of modification ≥70%)
C=CC(=O)N1CC[C@@H](N(C)c2nc(OC[C@@]34CCCN3C[C@H](F)C4)nc3cc(-c4ccc(F)c5sc(N)c(C#N)c45)c(C(F)(F)F)cc23)C1 [Compound 306]	B (50≤percent of modification <70%)	B (50≤percent of modification <70%)	< 500	A (percent of modification ≥70%)
C=CC(=O)N1C[C@H](C)N(c2nc(OCC34CCCN3C[C@H](F)C4)nc3c(F)c(-c4ccc(F)c5sc(C(F)F)nc45)c(C(F)(F)F)cc23)C[C@H]1C (stereo partly shown) [Compound 307]	D (percent of modification <10%)	C (10%≤percent of modification <50%)	> 20000	D (percent of modification <10%)
C=C(F)C(=O)N1CC[C@@H](N(C)c2nc(OC[C@@]34CCCN3C[C@H](F)C4)nc3c(F)c(-c4ccc(F)c5sc(N)nc45)c(C(F)(F)F)cc23)C1 [Compound 308]	C (10%≤percent of modification <50%)	C (10%≤percent of modification <50%)	< 500	C (10%≤percent of modification <50%)
C=CC(=O)N1C[C@H](N(C)c2nc(OC[C@@]34CCCN3C[C@H](F)C4)nc3cc(-c4ccc(F)c5sc(N)nc45)c(C(F)(F)F)cc23)C[C@H]1C [Compound 309]	B (50≤percent of modification <70%)	A (percent of modification ≥70%)	< 500	A (percent of modification ≥70%)
C=CC(=O)N1CC[C@@H](N(C)c2nc(OC[C@@]34CCCN3C[C@H](F)C4)nc3c(F)c(-c4ccc(F)c5sc(C(F)F)nc45)c(C(F)(F)F)cc23)C1 [Compound 310]	D (percent of modification <10%)	C (10%≤percent of modification <50%)	> 20000	D (percent of modification <10%)
C=CC(=O)N1CC[C@@H](N(C)c2nc(OC[C@@]34CCCN3C[C@H](F)C4)nc3c(F)c(-c4ccc(F)c5sc(N)c(C#N)c45)ccc23)C1 [Compound 311]	A (percent of modification ≥70%)	A (percent of modification ≥70%)	< 500	A (percent of modification ≥70%)
C=CC(=O)N1C[C@H](C)N(c2nc(OC[C@@]34CCCN3C[C@H](F)C4)nc3c(F)c(-c4ccc(F)c5sc(N)c(C#N)c45)ccc23)C[C@H]1C [Compound 312]	D (percent of modification <10%)	A (percent of modification ≥70%)	< 500	B (50≤percent of modification <70%)
